ChEMBL document CHEMBL4152224, “The Identification of Potent, Selective, and Orally Available Inhibitors of Ataxia Telangiectasia Mutated (ATM) Kinase: The Discovery of AZD0156 (8-{6-[3-(Dimethylamino)propoxy]pyridin-3-yl}-3-methyl-1-(tetrahydro-2 H-pyran-4-yl)-1,3-dihydro-2 H-imidazo[4,5- c]quinolin-2-one)” (J Med Chem, 2018)
pIC50: −log10 of the molar value.

Legend:
[1] = biological target: Leucine-rich repeat serine/threonine-protein kinase 2 (Homo sapiens) (UniProt Q5S007); test: Inhibition of human LRRK2 (H970 to E2527 residues) expressed in mammalian expression system at 1 uM relative to control
[2] = biological target: DNA-dependent protein kinase catalytic subunit (Homo sapiens, UniProt P78527)
[3] = biological target: Serine/threonine-protein kinase mTOR (Homo sapiens, UniProt P42345)

`CN(C)CCCOc1ccc(-c2ccc3ncc4c(c3c2)n(C2CCOCC2)c(=O)n4C)cn1` gave an inhibition [1] of 87%, a pIC50 [2] of 6.85 and a pIC50 [3] of 6.70.
